Reference: patent US8080665B2 (Chugai Seiyaku Kabushiki Kaisha, priority 2003, dated 2011)

Amino acid sequences for entries named in this document (tags omitted). Residues count along the entry.
UniProt O95822, 40-493 limits assumed: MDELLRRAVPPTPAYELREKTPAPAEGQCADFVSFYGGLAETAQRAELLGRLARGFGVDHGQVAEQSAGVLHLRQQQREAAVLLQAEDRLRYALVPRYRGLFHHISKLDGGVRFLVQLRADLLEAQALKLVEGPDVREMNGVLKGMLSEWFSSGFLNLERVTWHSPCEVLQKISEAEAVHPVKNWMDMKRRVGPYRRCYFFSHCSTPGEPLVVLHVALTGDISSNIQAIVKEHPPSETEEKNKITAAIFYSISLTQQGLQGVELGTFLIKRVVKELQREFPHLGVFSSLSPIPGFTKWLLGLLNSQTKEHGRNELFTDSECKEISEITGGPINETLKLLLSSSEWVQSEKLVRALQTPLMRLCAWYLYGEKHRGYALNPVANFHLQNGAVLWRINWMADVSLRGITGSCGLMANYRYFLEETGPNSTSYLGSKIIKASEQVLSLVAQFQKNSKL

Target: hMCD (Homo sapiens, UniProt O95822)
Experiment: In vitro MCD inhibitory assay
Conditions: read-out: Ki, in vitro MCD inhibitory activities

Ki: 56.7 nM
Structure (SMILES): CC(C)CCCN1CCC(NC(=O)N(c2ccc3nc(S)sc3c2)C(C)C)CC1
